Values quoted from earlier work, collected in publication PMC10494213 (iScience, 2023).

Conditions: pH = 7.4; ref http://www.chemspider.com/Chemical; cited from earlier work

In the case of `NC(=O)N1c2ccccc2C=Cc2ccccc21` [CMZ, Carbamazepine], the “log Kow” value is listed as 2.77.
